Test results: US9403839B2, “Pyran-spirocyclic piperidine amides as modulators of ion channels” (Vertex Pharmaceuticals Incorporated, priority 2012, dated 2016)

Sequences of proteins named here, by UniProt entry; tags and fusion partners are left off.
UniProt Q15858, whole entry: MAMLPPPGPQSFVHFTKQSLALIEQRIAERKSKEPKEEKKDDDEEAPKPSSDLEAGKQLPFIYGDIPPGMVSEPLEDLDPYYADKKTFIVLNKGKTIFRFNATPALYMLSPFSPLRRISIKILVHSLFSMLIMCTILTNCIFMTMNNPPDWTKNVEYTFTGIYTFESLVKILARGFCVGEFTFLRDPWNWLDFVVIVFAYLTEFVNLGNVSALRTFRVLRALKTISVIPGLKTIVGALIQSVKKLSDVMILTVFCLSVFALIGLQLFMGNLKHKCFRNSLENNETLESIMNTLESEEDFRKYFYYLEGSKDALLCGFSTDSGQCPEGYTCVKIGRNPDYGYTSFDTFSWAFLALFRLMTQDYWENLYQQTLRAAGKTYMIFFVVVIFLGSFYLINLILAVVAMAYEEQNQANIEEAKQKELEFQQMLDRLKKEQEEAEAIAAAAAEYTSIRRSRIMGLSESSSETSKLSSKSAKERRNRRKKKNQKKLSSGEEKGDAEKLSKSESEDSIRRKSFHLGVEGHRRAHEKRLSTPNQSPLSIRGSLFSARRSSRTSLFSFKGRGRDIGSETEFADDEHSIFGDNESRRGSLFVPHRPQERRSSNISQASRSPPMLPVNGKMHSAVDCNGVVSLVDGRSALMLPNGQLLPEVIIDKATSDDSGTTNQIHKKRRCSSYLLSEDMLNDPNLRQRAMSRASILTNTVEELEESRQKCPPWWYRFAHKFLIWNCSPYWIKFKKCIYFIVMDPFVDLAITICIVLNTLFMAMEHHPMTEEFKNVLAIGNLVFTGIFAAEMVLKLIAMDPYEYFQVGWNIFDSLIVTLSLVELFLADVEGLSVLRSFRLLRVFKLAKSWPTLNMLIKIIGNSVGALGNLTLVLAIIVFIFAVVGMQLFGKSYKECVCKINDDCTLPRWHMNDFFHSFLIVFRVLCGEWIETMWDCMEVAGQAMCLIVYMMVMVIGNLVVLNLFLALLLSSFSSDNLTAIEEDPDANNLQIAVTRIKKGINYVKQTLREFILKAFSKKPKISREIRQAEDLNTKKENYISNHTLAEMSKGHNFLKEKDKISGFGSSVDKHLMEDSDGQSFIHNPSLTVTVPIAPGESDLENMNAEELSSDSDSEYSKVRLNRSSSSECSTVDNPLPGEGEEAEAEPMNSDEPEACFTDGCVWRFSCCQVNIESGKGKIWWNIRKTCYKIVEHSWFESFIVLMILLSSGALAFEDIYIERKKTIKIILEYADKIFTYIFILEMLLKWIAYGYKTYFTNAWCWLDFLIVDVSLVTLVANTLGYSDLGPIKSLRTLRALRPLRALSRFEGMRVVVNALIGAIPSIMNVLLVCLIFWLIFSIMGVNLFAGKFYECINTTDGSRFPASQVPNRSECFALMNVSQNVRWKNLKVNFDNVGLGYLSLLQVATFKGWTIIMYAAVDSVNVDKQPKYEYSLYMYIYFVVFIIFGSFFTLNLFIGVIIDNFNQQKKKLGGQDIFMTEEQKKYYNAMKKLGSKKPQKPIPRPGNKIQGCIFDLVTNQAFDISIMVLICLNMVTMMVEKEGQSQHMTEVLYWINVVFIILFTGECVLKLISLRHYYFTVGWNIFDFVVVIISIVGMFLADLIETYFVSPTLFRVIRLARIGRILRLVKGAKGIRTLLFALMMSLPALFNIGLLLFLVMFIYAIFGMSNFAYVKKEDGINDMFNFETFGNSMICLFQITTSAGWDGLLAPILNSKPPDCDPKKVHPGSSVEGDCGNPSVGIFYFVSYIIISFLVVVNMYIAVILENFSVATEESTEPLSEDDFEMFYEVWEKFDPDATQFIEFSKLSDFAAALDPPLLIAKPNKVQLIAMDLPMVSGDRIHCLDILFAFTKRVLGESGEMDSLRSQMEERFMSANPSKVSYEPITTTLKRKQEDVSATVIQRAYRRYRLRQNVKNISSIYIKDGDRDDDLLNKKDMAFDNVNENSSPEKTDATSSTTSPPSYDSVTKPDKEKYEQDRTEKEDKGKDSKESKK

target: human NaV subtype, like NaV 1.7 (Homo sapiens, UniProt Q15858); assay: E-VIPR optical membrane potential assay with electrical stimulation; settings: read-out: IC50 Binned Activity Data; one or more sodium channels; assay and NaV subtype not specified for Table 3
Description: Assays for Detecting and Measuring NaV Inhibition Properties of Compound E-VIPR Optical Membrane Potential Assay Method with Electrical Stimulation
Sodium channels are voltage-dependent proteins that can be activated by inducing membrane voltage changes by applying electric fields. The electrical stimulation instrument and methods of use are described in Ion Channel Assay Methods PCT/US01/21652, herein incorporated by reference and are referred to as E-VIPR. The instrument comprises a microtiter plate handler, an optical system for exciting the coumarin dye while simultaneously recording the coumarin and oxonol emissions, a waveform generator, a current- or voltage-controlled amplifier, and a device for inserting electrodes in well. Under integrated computer control, this instrument passes user-programmed electrical stimulus protocols to cells within the wells of the microtiter plate.
24 hours before the assay on E-VIPR, HEK cells expressing human NaV subtype, like NaV 1.7, are seeded in 384-well poly-lysine coated plates at 15,000-20,000 cells per well. Other subtypes are performed in an analogous mode in a cell line expressing the NaV of interest. HEK cells are grown in media (exact composition is specific to each cell type and NaV subtype) supplemented with 10% FBS (Fetal Bovine Serum, qualified; GibcoBRL #16140-071) and 1% Pen-Strep (Penicillin-Streptomycin; GibcoBRL #15140-122). Cells are grown in vented cap flasks, in 90% humidity and 10% CO2, to 100% confluence. They are usually split by trypsinization 1:10 or 1:20, depending on scheduling needs, and grown for 2-3 days before the next split.
100 mg/mL Pluronic F-127 (Sigma #P2443), in dry DMSO
Compound Plates: 384-well round bottom plate, e.g. Corning 384-well Polypropylene Round Bottom #3656
Cell Plates: 384-well tissue culture treated plate, e.g. Greiner #781091-1B
Bath1 buffer. Glucose 10 mM (1.8 g/L), Magnesium Chloride (Anhydrous), 1 mM (0.095 g/L), Calcium Chloride, 2 mM (0.222 g/L), HEPES 10 mM (2.38 g/L), Potassium Chloride, 4.5 mM (0.335 g/L), Sodium Chloride 160 mM (9.35 g/L).
Hexyl Dye Solution: Bath1 Buffer+0.5% β-cyclodextrin (make this prior to use, Sigma #C4767), 8 μM CC2-DMPE+2.5 μM DiSBAC6(3). To make the solution Add volume of 10% Pluronic F127 stock equal to volumes of CC2-DMPE+DiSBAC6(3). The order of preparation is first mix Pluronic and CC2-DMPE, then add DiSBAC6(3) while vortexing, then add Bath1+β-Cyclodextrin.
1) Pre-spot compounds (in neat DMSO) into compound plates. Vehicle control (neat DMSO), the positive control (20 mM DMSO stock tetracaine, 125 μM final in assay) and test compounds are added to each well at 160× desired final concentration in neat DMSO. Final compound plate volume will be 80 μL (80-fold intermediate dilution from 1 μL DMSO spot; 160-fold final dilution after transfer to cell plate). Final DMSO concentration for all wells in assay is 0.625%.
2) Prepare Hexyl Dye Solution.
3) Prepare cell plates. On the day of the assay, medium is aspirated and cells are washed three times with 100 μL of Bath1 Solution, maintaining 25 μL residual volume in each well.
4) Dispense 25 μL per well of Hexyl Dye Solution into cell plates. Incubate for 20-35 minutes at room temp or ambient conditions.
5) Dispense 80 μL per well of Bath1 into compound plates. Acid Yellow-17 (1 mM) is added and Potassium Chloride can be altered from 4.5 to 20 mM depending on the NaV subtype and assay sensitivity.
6) Wash cell plates three times with 100 μL per well of Bath1, leaving 25 of residual volume. Then transfer 25 uL per well from Compound Plates to Cell Plates. Incubate for 20-35 minutes at room temp/ambient condition
7) Read Plate on E-VIPR. Use the current-controlled amplifier to deliver stimulation wave pulses for typically 9 seconds and a scan rate of 400 Hz. A pre-stimulus recording is performed for 0.5 seconds to obtain the un-stimulated intensities baseline. […]

| Structure (SMILES) | IC50 |
| --- | --- |
| CCOC1CC(c2cnc(C)s2)OC2(CCN(C(=O)c3ccc(OC(C)C)c(C)c3)CC2)C1 (centres unmarked) | < 2000 nM |
| CCOC1CC(c2ccccc2)OC2(CCN(C(=O)c3ccc(CN4CCOCC4)cc3)CC2)C1 (centres unmarked) | 2000 to 5000 nM |
| CCOC1CC(c2ccccc2)OC2(CCN(C(=O)c3cccnc3OC)CC2)C1 (centres unmarked) | 2000 to 5000 nM |
| Cc1cc(C(=O)N2CCC3(CC2)CC(OCC2CC2)CC(c2cccnc2)O3)ccc1OC(C)C (centres unmarked) | < 2000 nM |
| CCOC1CC(c2cccnc2)OC2(CCN(C(=O)c3ccc(OC(C)C)c(C)c3)CC2)C1 (single isomer, unassigned) [147] | > 5000 nM |
| CCOC1CC(c2ccccc2)OC2(CCN(C(=O)c3ccc(F)cc3Cl)CC2)C1 (centres unmarked) | 2000 to 5000 nM |
| CCOC1CC(c2ccccc2)OC2(CCN(C(=O)c3cccnc3N(C)C)CC2)C1 (centres unmarked) | > 5000 nM |
| CCOC1CC(c2ccccc2)OC2(CCN(C(=O)c3ccccc3N3CCOCC3)CC2)C1 (centres unmarked) | > 5000 nM |
| CCOC1CC(c2ccccc2)OC2(CCN(C(=O)c3ccc(OCCCO)c(C)c3)CC2)C1 (centres unmarked) | < 2000 nM |
| CCOC1CC(c2ccc(F)cc2)OC2(CCN(C(=O)c3ccc(S(=O)(=O)C(C)C)c(C#N)c3)CC2)C1 (centres unmarked) | > 5000 nM |
| CCOC1CC(c2ccccc2)OC2(CCN(C(=O)c3ccnc(C(C)(C)C)c3)CC2)C1 (centres unmarked) | 2000 to 5000 nM |
| CCOC1CC(c2ccccc2)OC2(CCN(C(=O)c3ccc(C4(O)CCCC4)cc3)CC2)C1 (centres unmarked) | < 2000 nM |
| CCOC1CC(c2cccnc2)OC2(CCN(C(=O)c3cnc(OC(C)C)c(C)c3)CC2)C1 (centres unmarked) | > 5000 nM |
| CCOC1CC(c2ccccc2)OC2(CCN(C(=O)c3cnc(OC(C)C)c(C)c3)CC2)C1 (centres unmarked) | < 2000 nM |
| CCOC1CC(c2ccccc2)OC2(CCN(C(=O)c3cc(-c4ccccc4)nn3C)CC2)C1 (centres unmarked) | 2000 to 5000 nM |
| CCOC1CC(c2ccccc2)OC2(CCN(C(=O)c3ccc(S(C)(=O)=O)cc3Cl)CC2)C1 (centres unmarked) | 2000 to 5000 nM |
| CCOC1CC(c2ccccc2)OC2(CCN(C(=O)c3ccc(CC)c(OC)c3)CC2)C1 (centres unmarked) | < 2000 nM |
| CCOC1CC(c2ccccn2)OC2(CCN(C(=O)c3ccc(OC(C)C)c(C)c3)CC2)C1 (centres unmarked) | < 2000 nM |
| CCOC1CC(c2ccccc2)OC2(CCN(C(=O)c3ccc(OC(C)C)nc3)CC2)C1 (centres unmarked) | < 2000 nM |
| CCOC1CC(c2cccc(F)c2)OC2(CCN(C(=O)c3ccc(OC(C)C)c(OC)c3)CC2)C1 (centres unmarked) | < 2000 nM |
| CCOc1c(C)cccc1C(=O)N1CCC2(CC1)CC(OCC)CC(c1ccccc1)O2 (centres unmarked) | < 2000 nM |
| CCOC1CC(c2cccc(F)c2)OC2(CCN(C(=O)c3ccc(C(C)(C)O)c(F)c3)CC2)C1 (centres unmarked) | < 2000 nM |
| CCOC1CC(c2ccccc2)OC2(CCN(C(=O)c3cc(C4CC4)nn3C(C)(C)C)CC2)C1 (centres unmarked) | 2000 to 5000 nM |

| Structure (SMILES) | IC50 |
| --- | --- |
| CCOc1ncccc1C(=O)N1CCC2(CC1)CC(OCC)CC(c1ccccc1)O2 (centres unmarked) | < 2000 nM |
| CCOC1CC(c2ccccc2)OC2(CCN(C(=O)c3ccc(N4CCOCC4)c(C)c3)CC2)C1 (centres unmarked) | < 2000 nM |
| CCOC1CC(c2ccc(F)cc2)OC2(CCN(C(=O)c3ccc(S(=O)(=O)C(F)F)cc3)CC2)C1 (centres unmarked) | 2000 to 5000 nM |
| CCOC1CC(c2ccccc2)OC2(CCN(C(=O)c3ccc(COCCC(F)(F)F)c(OC)c3)CC2)C1 (centres unmarked) | < 2000 nM |
| CCOC1CC(c2ccccc2)OC2(CCN(C(=O)c3cccc(F)c3C)CC2)C1 (centres unmarked) | > 5000 nM |
| CCOC1CC(c2ccccc2)OC2(CCN(C(=O)c3ccc(OC(F)F)cc3)CC2)C1 (centres unmarked) | < 2000 nM |
| CCOC1CC(c2ccccc2)OC2(CCN(C(=O)c3ccc(OC)cc3C(F)(F)F)CC2)C1 (centres unmarked) | 2000 to 5000 nM |
| CCOC1CC(c2ccc(F)cc2)OC2(CCN(C(=O)c3ccc(OC(C)C)c(F)c3)CC2)C1 (centres unmarked) | < 2000 nM |
| CCOC1CC(c2ccccc2)OC2(CCN(C(=O)c3ccc(OCCOC)c(OC)c3)CC2)C1 (centres unmarked) | < 2000 nM |
| CCOC1CC(c2ccccc2)OC2(CCN(C(=O)c3ccc4ncccc4c3)CC2)C1 (centres unmarked) | > 5000 nM |
| Cc1cc(C(=O)N2CCC3(CC2)CC(OC(C)C)CC(c2cccnc2)O3)ccc1OC(C)C (centres unmarked) | < 2000 nM |
| CCOC1CC(c2cccnc2)OC2(CCN(C(=O)c3ccc(COCC(F)(F)F)cc3)CC2)C1 (centres unmarked) | 2000 to 5000 nM |
| CCOC1CC(c2ccccc2)OC2(CCN(C(=O)c3ccc(S(=O)(=O)NC4CC4)cc3)CC2)C1 (centres unmarked) | < 2000 nM |
| CCOC1CC(c2ccccc2)OC2(CCN(C(=O)c3ccc(OC)c(C)c3)CC2)C1 (centres unmarked) | < 2000 nM |
| CCOC1CC(c2ccccc2)OC2(CCN(C(=O)c3cn4ccc(C)cc4n3)CC2)C1 (centres unmarked) | < 2000 nM |
| CCOC1CC(c2ccccc2)OC2(CCN(C(=O)c3ccc(C4CC4)cc3)CC2)C1 (centres unmarked) | < 2000 nM |
| CCOC1CC(c2ccccc2)OC2(CCN(C(=O)c3cccc4nccnc34)CC2)C1 (centres unmarked) | < 2000 nM |
| CCOC1CC(c2ccccc2)OC2(CCN(C(=O)c3cc(C)ccc3F)CC2)C1 (centres unmarked) | > 5000 nM |
| CCOC1CC(c2cccnc2)OC2(CCN(C(=O)c3ccc(CC)c(OC)c3)CC2)C1 (centres unmarked) | > 5000 nM |
| CCOC1CC(c2ccc(F)cc2)OC2(CCN(C(=O)c3ccc(S(=O)(=O)NC4CC4)cc3)CC2)C1 (centres unmarked) | < 2000 nM |
| CCOC1CC(c2ccccc2)OC2(CCN(C(=O)c3cc4ccccc4cn3)CC2)C1 (centres unmarked) | 2000 to 5000 nM |
| CCOc1ccc(C(=O)N2CCC3(CC2)CC(OCC)CC(c2ccc(F)cc2)O3)cc1OC (centres unmarked) | < 2000 nM |
| CCOC1CC(c2ccccc2)OC2(CCN(C(=O)c3ccc(C(C)(C)O)c(C)c3)CC2)C1 (centres unmarked) | < 2000 nM |

| Structure (SMILES) | IC50 |
| --- | --- |
| CCOC1CC(c2ccc(F)cc2)OC2(CCN(C(=O)c3ccc(CC(C)(C)O)c(F)c3)CC2)C1 (centres unmarked) | < 2000 nM |
| CCOC1CC(c2ccccc2)OC2(CCN(C(=O)c3ccc(OC(C)C)c(OC)c3)CC2)C1 (centres unmarked) | > 5000 nM |
| CCOC1CC(c2ccccc2)OC2(CCN(C(=O)c3ccnc(N4CCCCC4)c3)CC2)C1 (centres unmarked) | < 2000 nM |
| CCOC1CC(c2ccccn2)OC2(CCN(C(=O)c3ccc(OC(C)C)c(OC)c3)CC2)C1 (centres unmarked) | > 5000 nM |
| CCOC1CC(c2ccccc2)OC2(CCN(C(=O)c3cc(-c4ccccc4)n(C)n3)CC2)C1 (centres unmarked) | < 2000 nM |
| Cc1cc(C(=O)N2CCC3(CC2)CC(OCCF)CC(c2cccnc2)O3)ccc1OC(C)C (centres unmarked) | < 2000 nM |
| CCOC1CC(c2ccccc2)OC2(CCN(C(=O)c3cccc4c3OCC4)CC2)C1 (centres unmarked) | < 2000 nM |
| CCOC1CC(c2ccccc2)OC2(CCN(C(=O)c3ccc(OC)cc3F)CC2)C1 (centres unmarked) | < 2000 nM |
| CCOC1CC(c2ccccc2)OC2(CCN(C(=O)c3ccc(COCCC(F)(F)F)cc3)CC2)C1 (centres unmarked) | < 2000 nM |
| CCOC1CC(c2cccnc2)OC2(CCN(C(=O)c3ccc(S(=O)(=O)C(F)F)cc3)CC2)C1 (centres unmarked) | > 5000 nM |
| CCOC1CC(c2ccccc2)OC2(CCN(C(=O)c3cn4cc(Cl)ccc4n3)CC2)C1 (centres unmarked) | 2000 to 5000 nM |
| CCOC1CC(c2cccnc2)OC2(CCN(C(=O)c3ccc(OC(C)C)c(OC)n3)CC2)C1 (centres unmarked) | 2000 to 5000 nM |
| CCOC1CC(c2ccccc2)OC2(CCN(C(=O)c3ccc(S(=O)(=O)CC)cc3)CC2)C1 (centres unmarked) | < 2000 nM |
| Cc1cc(C(=O)N2CCC3(CC2)CC(OC(C)C)CC(c2ccccc2)O3)ccc1OC(C)C (centres unmarked) | < 2000 nM |
| CCOC1CC(c2cncc(F)c2)OC2(CCN(C(=O)c3ccc(OC(C)C)c(C)c3)CC2)C1 (centres unmarked) | < 2000 nM |
| COCCOC1CC(c2ccccc2)OC2(CCN(C(=O)c3ccc(OC(C)C)c(OC)c3)CC2)C1 (centres unmarked) | < 2000 nM |
| CCOC1CC(c2ccccc2)OC2(CCN(C(=O)c3cnn(-c4ccccc4)c3C)CC2)C1 (centres unmarked) | < 2000 nM |
| CCOC1CC(c2ccccc2)OC2(CCN(C(=O)c3ccc(N4CCCCC4)nc3)CC2)C1 (centres unmarked) | < 2000 nM |
| CCOC1CC(c2ccccc2)OC2(CCN(C(=O)c3ccnc(N(C)C)c3)CC2)C1 (centres unmarked) | 2000 to 5000 nM |
| CCOC1CC(c2ccccc2)OC2(CCN(C(=O)c3ccc(S(=O)(=O)C(C)C)cc3)CC2)C1 (centres unmarked) | 2000 to 5000 nM |
| CCOC1CC(c2ccccc2)OC2(CCN(C(=O)c3ccc(OC)nc3OC)CC2)C1 (centres unmarked) | < 2000 nM |
| CCOC1CC(c2ccccc2)OC2(CCN(C(=O)c3cccc4c3OCCC4)CC2)C1 (centres unmarked) | < 2000 nM |
